Assay results published in paper PMC6154603, “Study on the Rationality for Antiviral Activity of Flos Lonicerae Japonicae-Fructus Forsythiae Herb Couple Preparations Improved by Chito-Oligosaccharide via Integral Pharmacokinetics” (Molecules : A Journal of Synthetic Chemistry and Natural …, 2017).

Columns and labels:
Caco-2 cell = experiment: In vitro Caco-2 cell transport model; format: in vitro ADME, human; conditions: Shuang-Huang-Lian, with 0.1% (w/v) of COS vs control
[1] = Pharmacokinetics of caffeic acid derivatives after oral administration of the FLJ-FF herb couple; format: in vivo; conditions: rats, Table S2
[2] = In vivo pharmacokinetic study of FLJ-FF herb couple preparations with or without COS; design: species or system rats; conditions: for AUC (Absorption Enhancer) / AUC (Control): rats; for AUC value increased by: addition of COS 25 mg/kg to rats

## forsythoside B
Caco-2 cell
  highest Papp-value increase: 2.43 fold
[1]
  AUC0-t: 4292.70 ± 153.20 ng·min/mL
  AUC0-∞: 4315.40 ± 183.84 ng·min/mL
  Cmax: 51.96 ± 14.52 ng/mL
  MRT0-t: 3.3683 ± 0.9507 h
  T1/2z: 4.0888 ± 0.9253 h
[2]; Fufang Qin-Lan Oral Liquid with COS 25 mg/kg
  AUC (Absorption Enhancer): 1868.2 ± 142.50
[2]; Fufang Qin-Lan Oral Liquid, 48 g raw medicine per kilogram
  AUC (Control): 1416.5 ± 252.44
[2]; Fufang Qin-Lan
  AUC value increased by: 0.32 fold
[2]; Qin-Re-Jie-Du Oral Liquid with COS 25 mg/kg
  AUC (Absorption Enhancer): 2532.0 ± 183.95
[2]; Qin-Re-Jie-Du Oral Liquid, 160 g raw medicine per kilogram
  AUC (Control): 1955.0 ± 716.78
[2]; Qin-Re-Jie-Du
  AUC value increased by: 0.30 fold
[2]; Shuang-Huang-Lian Oral Liquid with COS 25 mg/kg
  AUC (Absorption Enhancer): 14,694 ± 2047.0
[2]; Shuang-Huang-Lian Oral Liquid, 32 g raw medicine per kilogram
  AUC (Control): 3685.0 ± 328.86
[2]; Shuang-Huang-Lian
  AUC value increased by: 2.99 fold
[2]; Yin-Qiao-Jie-Du Oral Liquid with COS 25 mg/kg
  AUC (Absorption Enhancer): 12,440 ± 1564.9
[2]; Yin-Qiao-Jie-Du Oral Liquid, 64 g raw medicine per kilogram
  AUC (Control): 6678.3 ± 850.79
